# Laboratory results: paper PMC10095301, “To Target or Not to Target Schistosoma mansoni Cyclic Nucleotide Phosphodiesterase 4A?” (International Journal of Molecular Sciences, 2023)
# Test system: Nc1ncnc2c1ncn2[C@@H]1O[C@@H]2COP(=O)(O)O[C@H]2[C@H]1O
# Assay: purified protein, by the assay type
# Details: other: Michaelis-Menten, n = 5; pH 7.5; 25.0 °C
substance,measurement,value
SmPDE4A_CD (Schistosoma mansoni),Km,2.70 ± 0.33 µM
